Reference: patent EP0075141A1, “1,2,5-Oxadiazole-3,4-dicarboxylic-acid derivatives, process for their production, their use and pharmaceutical preparations containing them” (CASSELLA Aktiengesellschaft, priority 1981, dated 1983)

Test system: Bastardhunden
Experiment: Haemodynamic study of antianginal and antihypertensive action in anaesthetised mongrel dogs
Type: in vivo
Settings: Dosis 0,8 mg/kg; dogs under pentobarbital or urethane-chloralose anaesthesia

With `O=[N+]([O-])O[C@H]1CO[C@H]2[C@@H]1OC[C@H]2O[N+](=O)[O-]` the “BDm Δ (mittlerer peripherer Blutdruck)” value was -15 mmHg, the “HF Δ (Herzfrequenz)” value was “+15 b/min” and the “LVEDP Δ (linksventrikulärer enddiastolischer Druck)” value was -3,0 mmHg. The “PAP Δ (mittlerer Pulmonalarteriendruck)” value was -2,0 mmHg.
